Data as given in article PMC3576842 (Cancer discovery, 2012).

Test system: NCI-H1975 tumor xenografts (EGFR L858R/T790M)
Experiment: NCI-H1975 xenograft study
Settings: daily for 3 days; PKC412 100 or 200 mg/kg, gefitinib 100 mg/kg

COc1cc2ncnc(Nc3ccc(F)c(Cl)c3)c2cc1OCCCN1CCOCC1 [gefitinib]
suppression of phospho-EGFR and phospho-AKT in tumors: failed to inhibit EGFR signaling
